Literature values, collected in PMC5412686 (Biopharmaceutics & Drug Disposition, 2017).

Settings: Humans, oral bioavailability; ref Supplemental Table S2; cited from earlier work

Which F does the source give for `CCOC(=O)c1ncn2c1CN(C)C(=O)c1cc(F)ccc1-2` [Flumazenil] here?
The F was 0.22.
